This passage reports IC50 results from ChEMBL document CHEMBL1148720, “Extensive SAR and computational studies of 3-{4-[(benzylmethylamino)methyl]phenyl}-6,7-dimethoxy-2H-2-chromenone (AP2238) derivatives” (J Med Chem, 2007).

The chains behind the UniProt entries cited, without tags or fusion partners. Where a name states a change or a piece, a line headed by the entry shows the natural chain unless it says otherwise.
UniProt P22303: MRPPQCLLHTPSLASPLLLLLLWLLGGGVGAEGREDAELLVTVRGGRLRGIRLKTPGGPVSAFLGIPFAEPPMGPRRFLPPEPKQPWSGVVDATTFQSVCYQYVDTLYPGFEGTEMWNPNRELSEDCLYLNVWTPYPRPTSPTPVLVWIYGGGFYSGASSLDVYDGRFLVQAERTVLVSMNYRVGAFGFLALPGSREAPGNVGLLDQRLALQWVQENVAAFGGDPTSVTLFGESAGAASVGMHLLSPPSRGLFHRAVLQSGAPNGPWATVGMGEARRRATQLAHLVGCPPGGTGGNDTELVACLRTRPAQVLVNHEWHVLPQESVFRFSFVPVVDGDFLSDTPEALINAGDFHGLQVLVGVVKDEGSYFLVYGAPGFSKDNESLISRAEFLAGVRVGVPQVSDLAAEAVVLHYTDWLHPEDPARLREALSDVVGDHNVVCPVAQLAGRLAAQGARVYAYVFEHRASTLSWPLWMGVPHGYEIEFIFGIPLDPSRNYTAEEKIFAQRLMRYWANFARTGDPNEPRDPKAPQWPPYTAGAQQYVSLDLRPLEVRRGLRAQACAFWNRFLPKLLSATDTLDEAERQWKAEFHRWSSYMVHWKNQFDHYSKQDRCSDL

This assay deals with Acetylcholinesterase (Homo sapiens, UniProt P22303). Briefly: Inhibition of human recombinant AChE.

In general, IC50 refers to the concentration that gives 50% inhibition.

On to `COc1cc2cc(-c3ccc(CN(C)Cc4ccc([N+](=O)[O-])cc4)cc3)c(=O)oc2cc1OC`, for which the IC50 came out at 24.6 µM.
